AlphaSeq binding of Ab-14 heavy chain variants to a spike HR2 peptide

Binding partner: SARS-CoV-2 spike HR2 peptide, sequence PDVDLGDISGINAS.

Each scFv is VH, a (GGGGS)3 linker, VL, as in the parent Ab-14, and differs from it in the CDRs of the heavy chain only.
VH: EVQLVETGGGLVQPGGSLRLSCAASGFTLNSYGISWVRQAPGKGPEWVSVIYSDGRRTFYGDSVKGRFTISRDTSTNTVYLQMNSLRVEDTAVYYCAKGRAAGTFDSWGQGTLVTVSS
VL: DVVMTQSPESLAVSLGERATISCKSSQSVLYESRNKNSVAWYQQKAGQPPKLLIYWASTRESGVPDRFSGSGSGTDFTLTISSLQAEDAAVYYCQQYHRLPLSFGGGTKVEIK

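The starting antibody came from a phage panning campaign against this peptide. This is the validation round: designs drawn from the data on random variants, tested in the same kind of assay. Their group label is 14H_GP_Gen (GP: Gaussian process model; Gen: genetic algorithm; a sequence that several methods proposed may carry one label only). In AlphaSeq, yeast of one mating type display the scFv and yeast of the other type display the target. Mating (16 h, 30 °C) was followed by selection of diploids and sequencing of their barcodes. A regression on co-assayed BCL2-family reference pairs converts the normalised counts of each replicate to an apparent Kd. The assay was run in six technical replicates.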

Each variant is given by its three heavy chain CDRs, as the data file delimits them; those of the parent are GFTLNSYGIS, VIYSDGRRTFYGDSVK, GRAAGTFDS. The read-out is the apparent dissociation constant on a log10 scale (nM): the lower, the stronger. A pair that was not seen in that replicate is written "nd"; this usually means weak binding, but a binder can also be missed.

{"CDR-H1": "GFELNDYGIS", "CDR-H2": "VIYSDGRRTFYIDSVK", "CDR-H3": "GRTAGTFDS", "replicates, log10 nM": "2.19 1.35 0.91 1.47 0.97 2.52", "signal with controls": "0 of 18"}
{"CDR-H1": "FFDLNSYGIS", "CDR-H2": "VIYSDGRRTAYGDSVK", "CDR-H3": "GRNAGTFDS", "replicates, log10 nM": "0.74 0.24 0.51 -0.11 0.25 0.78", "signal with controls": "0 of 18"}
{"CDR-H1": "HFDLNSYGIS", "CDR-H2": "VIYSDGRRTAYGDSVK", "CDR-H3": "GRTAGTFDS", "replicates, log10 nM": "0.41 0.49 0.81 0.65 0.48 0.85", "signal with controls": "0 of 18"}
{"CDR-H1": "GFDLNSYGIS", "CDR-H2": "VIYSDGRRTFYGDQVK", "CDR-H3": "GRQAGTFDS", "replicates, log10 nM": "0.82 0.75 1.60 1.02 1.85 2.06", "signal with controls": "0 of 18"}
{"CDR-H1": "GFELNSYGIS", "CDR-H2": "VIYSDGHRTFYGDSVK", "CDR-H3": "GRTAGTFDS", "replicates, log10 nM": "1.23 1.04 1.07 1.13 0.14 1.04", "signal with controls": "0 of 18"}
{"CDR-H1": "GFQLNEYGIS", "CDR-H2": "VIYSDGRRTFYGDAVK", "CDR-H3": "GRTAGTFDS", "replicates, log10 nM": "0.56 0.28 0.00 0.05 0.09 0.54", "signal with controls": "1 of 18 (1.42)"}
{"CDR-H1": "GFTLNSYGIS", "CDR-H2": "VIYSDGRRTFYGDSVK", "CDR-H3": "GKTAGTFDK", "replicates, log10 nM": "nd nd 3.38 nd 1.15 nd", "signal with controls": "0 of 18"}
{"CDR-H1": "GFELNEYGIS", "CDR-H2": "VIYSDGRRTFYGDNVK", "CDR-H3": "GRTAGTFDS", "replicates, log10 nM": "1.05 1.06 0.68 1.15 0.67 0.57", "signal with controls": "0 of 18"}
{"CDR-H1": "GFELNSYGIS", "CDR-H2": "VIYSDGRRTFYIDSVK", "CDR-H3": "GNTAGTFDS", "replicates, log10 nM": "2.54 1.91 0.48 1.95 1.76 1.69", "signal with controls": "0 of 18"}
{"CDR-H1": "GFELNEYGIS", "CDR-H2": "VIYSDGRRTFYIDSVK", "CDR-H3": "GQAAGTFDK", "replicates, log10 nM": "0.24 0.55 0.03 -0.03 -0.38 -0.08", "signal with controls": "0 of 18"}
{"CDR-H1": "GFELNSYGIS", "CDR-H2": "VIYSDGRRTFYGDSVK", "CDR-H3": "GNQAGTFDS", "replicates, log10 nM": "0.38 0.89 0.26 0.67 0.19 0.73", "signal with controls": "0 of 18"}
{"CDR-H1": "GFDLNSYGIS", "CDR-H2": "VIYSDGRRTFYGDAVK", "CDR-H3": "GREAGTFDS", "replicates, log10 nM": "nd -1.14 nd nd nd nd", "signal with controls": "0 of 18"}
{"CDR-H1": "GFWLNEYGIS", "CDR-H2": "VIYSDGRRTFYGDSVK", "CDR-H3": "GSAAGTFDS", "replicates, log10 nM": "0.75 0.94 1.30 0.83 1.27 0.98", "signal with controls": "0 of 18"}
{"CDR-H1": "GFELNSYGIS", "CDR-H2": "VIYSDGRRTAYGDSVK", "CDR-H3": "GKAAGTFDS", "replicates, log10 nM": "nd nd nd nd nd nd", "signal with controls": "0 of 18"}
{"CDR-H1": "GFSLNSYGIS", "CDR-H2": "VIYSDGRRTFYGDSVK", "CDR-H3": "GKTAGTFDK", "replicates, log10 nM": "0.99 0.51 0.26 1.42 0.75 0.52", "signal with controls": "0 of 18"}
{"CDR-H1": "KFKLNSYGIS", "CDR-H2": "VIYADGRRTFYGDSVK", "CDR-H3": "GRTAGTFDS", "replicates, log10 nM": "1.37 2.53 1.89 1.35 1.69 3.05", "signal with controls": "3 of 18 (2.39)"}
{"CDR-H1": "GFLLNEYGIS", "CDR-H2": "VIYSDGRRTFYGDSVK", "CDR-H3": "GEAAGTFDS", "replicates, log10 nM": "0.61 1.15 0.37 0.27 0.39 0.71", "signal with controls": "0 of 18"}
{"CDR-H1": "GFSLNEYGIS", "CDR-H2": "VIYSDGRRTFYHDSVK", "CDR-H3": "GRMAGTFDS", "replicates, log10 nM": "0.01 0.24 0.02 0.03 -0.27 -0.10", "signal with controls": "0 of 18"}
{"CDR-H1": "GFDLNSYGIS", "CDR-H2": "VIYSDGRRTFYGDDVK", "CDR-H3": "GRNAGTFDS", "replicates, log10 nM": "0.03 -0.14 -0.27 0.42 0.13 -0.02", "signal with controls": "1 of 18 (1.53)"}
{"CDR-H1": "GFDLNSYGIS", "CDR-H2": "VIYSDGRRTFYADMVK", "CDR-H3": "GQAAGTFDS", "replicates, log10 nM": "0.59 0.59 0.49 0.36 0.59 0.87", "signal with controls": "0 of 18"}
{"CDR-H1": "GFDLNSYGIS", "CDR-H2": "VIYSDGRRTFYGDSVK", "CDR-H3": "GWAAGTFDD", "replicates, log10 nM": "0.72 0.67 0.65 1.17 1.26 1.15", "signal with controls": "1 of 18 (2.72)"}
{"CDR-H1": "GFDLNSYGIS", "CDR-H2": "VIYSDGRRTFYSDRVK", "CDR-H3": "GKAAGTFDS", "replicates, log10 nM": "0.26 0.51 0.14 0.14 0.06 0.49", "signal with controls": "1 of 18 (2.26)"}
{"CDR-H1": "GFSLKSYGIS", "CDR-H2": "VIYSDGRRTFYGDNVK", "CDR-H3": "GRTAGTFDS", "replicates, log10 nM": "2.04 2.02 1.65 1.54 2.02 1.56", "signal with controls": "0 of 18"}
{"CDR-H1": "GFDLNSYGIS", "CDR-H2": "VIYSDGRRTFYGDSVK", "CDR-H3": "GQAAGTFDE", "replicates, log10 nM": "0.50 0.29 0.90 0.60 0.79 1.05", "signal with controls": "0 of 18"}
{"CDR-H1": "GFDLNSYGIS", "CDR-H2": "VIYSDGRRTFYGDQVK", "CDR-H3": "GREAGTFDT", "replicates, log10 nM": "1.56 nd 1.02 1.71 1.36 1.46", "signal with controls": "0 of 18"}
{"CDR-H1": "GFNLNSYGIS", "CDR-H2": "VIYSDGRRTFYGDNVK", "CDR-H3": "GQAAGTFDS", "replicates, log10 nM": "0.63 0.85 0.77 0.74 0.89 0.85", "signal with controls": "0 of 18"}
{"CDR-H1": "GFDLNAYGIS", "CDR-H2": "VIYSDGRRTMYGDSVK", "CDR-H3": "GRTAGTFDS", "replicates, log10 nM": "0.03 -0.17 0.24 -0.47 -0.42 0.14", "signal with controls": "0 of 18"}
{"CDR-H1": "KFNLNSYGIS", "CDR-H2": "VIYSDGRRTFYGDSVK", "CDR-H3": "GQTAGTFDS", "replicates, log10 nM": "0.84 0.59 0.88 0.72 -0.06 1.13", "signal with controls": "0 of 18"}
{"CDR-H1": "GFELNSYGIS", "CDR-H2": "VIYADGRRTFYGDSVK", "CDR-H3": "GRAAGTFDA", "replicates, log10 nM": "0.43 0.78 0.45 0.78 0.54 -0.26", "signal with controls": "0 of 18"}
{"CDR-H1": "GFWLNSYGIS", "CDR-H2": "VIYADGRRTFYGDSVK", "CDR-H3": "GRTAGTFDS", "replicates, log10 nM": "0.97 0.96 1.27 1.11 0.94 1.08", "signal with controls": "1 of 18 (3.56)"}

Repeated from above, the 4 best binders with a signal in all replicates:

CDR-H1,CDR-H2,CDR-H3,"replicates, log10 nM",signal with controls
GFDLNAYGIS,VIYSDGRRTMYGDSVK,GRTAGTFDS,0.03 -0.17 0.24 -0.47 -0.42 0.14,0 of 18
GFSLNEYGIS,VIYSDGRRTFYHDSVK,GRMAGTFDS,0.01 0.24 0.02 0.03 -0.27 -0.10,0 of 18
GFDLNSYGIS,VIYSDGRRTFYGDDVK,GRNAGTFDS,0.03 -0.14 -0.27 0.42 0.13 -0.02,1 of 18 (1.53)
GFELNEYGIS,VIYSDGRRTFYIDSVK,GQAAGTFDK,0.24 0.55 0.03 -0.03 -0.38 -0.08,0 of 18

In the paper, a design with two or fewer of six values counts as a poor binder. The range of this assay differs from that of the first round, and the authors advise against merging the two. Of ten entries with the parent sequence, four were seen in most replicates (averages 0.34 to 2.37), three in one and three in none, so single entries are noisy. Empty control strains, which show no peptide, gave a signal in 1% of pairings with all heavy chain designs; the median was 2.08 and 95% of these signals were weaker than 0.84. No background was subtracted. For each scFv, signals with the empty controls are counted beside the result, with their mean in brackets.

Reference: Li et al. 2023, doi:10.1038/s41467-023-39022-2. File: FLAb, binding data.